We go through 2 molecules from US9902940B2, “Human blood-brain barrier endothelial cells derived from pluripotent stem cells and blood-brain barrier model thereof” (Wisconsin Alumni Research Foundation, priority 2010, dated 2018).

By UniProt entry, the sequences of proteins in these tests, tags left out.
UniProt P08183, whole entry: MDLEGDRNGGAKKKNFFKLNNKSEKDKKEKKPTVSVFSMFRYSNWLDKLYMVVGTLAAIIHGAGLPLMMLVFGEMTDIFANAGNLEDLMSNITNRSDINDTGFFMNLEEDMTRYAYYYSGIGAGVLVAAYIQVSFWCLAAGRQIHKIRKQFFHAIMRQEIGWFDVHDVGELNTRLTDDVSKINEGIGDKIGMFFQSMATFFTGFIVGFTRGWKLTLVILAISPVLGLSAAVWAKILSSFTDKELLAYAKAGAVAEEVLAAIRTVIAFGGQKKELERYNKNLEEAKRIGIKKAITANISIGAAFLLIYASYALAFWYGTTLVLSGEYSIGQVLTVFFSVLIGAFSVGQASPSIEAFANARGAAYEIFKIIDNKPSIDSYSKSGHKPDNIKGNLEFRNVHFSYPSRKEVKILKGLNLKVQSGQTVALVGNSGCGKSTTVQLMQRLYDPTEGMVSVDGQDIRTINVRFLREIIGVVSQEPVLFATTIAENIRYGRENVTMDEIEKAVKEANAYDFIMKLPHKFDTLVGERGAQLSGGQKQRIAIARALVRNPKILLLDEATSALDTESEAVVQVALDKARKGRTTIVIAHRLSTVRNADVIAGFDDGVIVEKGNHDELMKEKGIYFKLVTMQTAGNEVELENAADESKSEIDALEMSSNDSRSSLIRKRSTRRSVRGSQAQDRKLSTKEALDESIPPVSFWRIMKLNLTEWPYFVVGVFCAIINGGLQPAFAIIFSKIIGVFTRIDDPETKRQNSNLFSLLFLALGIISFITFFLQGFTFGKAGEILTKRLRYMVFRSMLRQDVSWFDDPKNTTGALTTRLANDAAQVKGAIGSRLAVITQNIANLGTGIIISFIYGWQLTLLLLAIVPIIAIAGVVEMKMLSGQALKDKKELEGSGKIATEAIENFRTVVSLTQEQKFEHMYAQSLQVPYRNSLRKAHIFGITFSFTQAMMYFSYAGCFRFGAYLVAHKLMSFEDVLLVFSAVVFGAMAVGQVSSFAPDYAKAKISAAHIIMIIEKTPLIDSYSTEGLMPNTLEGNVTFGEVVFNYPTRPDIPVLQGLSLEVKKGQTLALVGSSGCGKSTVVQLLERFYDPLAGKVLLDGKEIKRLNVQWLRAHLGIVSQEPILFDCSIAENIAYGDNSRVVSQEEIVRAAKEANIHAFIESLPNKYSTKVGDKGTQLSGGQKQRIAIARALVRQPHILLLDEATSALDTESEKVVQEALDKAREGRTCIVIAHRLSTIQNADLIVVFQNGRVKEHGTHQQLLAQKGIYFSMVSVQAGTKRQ

In series [1] the target is T1, p-glycoprotein (Homo sapiens, UniProt P08183). In words: Apical-to-basolateral transport of rhodamine 123 with efflux inhibitors, IMR90-4-derived BMEC/astrocyte model. To be noted: astrocyte co-culture; 60 min; normalized to no inhibitor.
Series [2] has as its target T1, p-glycoprotein. Kind of series: Rhodamine 123 accumulation assay with efflux inhibitors in monocultured IMR90-4-derived BMECs. To be noted: monoculture; 10 μM rhodamine 123, 1 h; 5 μM cyclosporin A, 1 μM Ko143 or 10 μM MK 571; normalized to no inhibitor.
The subject of series [3] is p-glycoprotein, BCRP, and the MRP family. Kind of series: Doxorubicin accumulation assay with efflux inhibitors in monocultured IMR90-4-derived BMECs. To be noted: monoculture; doxorubicin 0.25 μCi, 1 h; 5 μM cyclosporin A, 1 μM Ko143 or 10 μM MK 571.
Series [4] has as its system BBB influx and efflux transporters (GLUT-1, MDR1, BCRP, MRP family, organic cation transporters). Conditions: efflux transporter inhibitors (Table 6); cited from earlier work.
For series [5], the system named is p-glycoprotein, BCRP and MRP family efflux transporters. Kind of series: Apical-to-basolateral transport of doxorubicin with efflux inhibitors, IMR90-4-derived BMEC/astrocyte model. Format: in vitro ADME, human. To be noted: astrocyte co-culture; 60 min; normalized to no inhibitor.

Take `COc1ccc2c3c([nH]c2c1)[C@H](CC(C)C)N1C(=O)[C@H](CCC(=O)OC(C)(C)C)NC(=O)[C@@H]1C3` [Ko143]: the “transport of rhodamine 123 from the apical to basolateral chamber in the presence of inhibitor” value at p-glycoprotein [1] was “not”. Also, on p-glycoprotein [2], the “increase in cellular accumulation of rhodamine 123 in the presence of inhibitor” value is reported as “not”.

Consider `CN(C)C(=O)CCSC(SCCC(=O)O)c1cccc(/C=C/c2ccc3ccc(Cl)cc3n2)c1` (centres unmarked) [MK 571], for which the “accumulation of doxorubicin in the presence of inhibitor” value in series [3] is listed as “increased”. Further, the Transporter recognition entry in series [4] is on record as “MRP family”. In series [5], the “transport of doxorubicin from the apical to basolateral chamber in the presence of inhibitor” value turned out to be 1.17 fold.
